# Yeast mating assay B: variants of the scFv Ab-14

The measurements come from Li et al. 2023 (doi:10.1038/s41467-023-39022-2) through the FLAb antibody collection.

All variants were tested on one target, the spike HR2 peptide PDVDLGDISGINAS (SARS-CoV-2).

The variants keep the heavy chain, the linker and the frameworks of Ab-14 (scFv order VH, three GGGGS repeats, VL).
VH: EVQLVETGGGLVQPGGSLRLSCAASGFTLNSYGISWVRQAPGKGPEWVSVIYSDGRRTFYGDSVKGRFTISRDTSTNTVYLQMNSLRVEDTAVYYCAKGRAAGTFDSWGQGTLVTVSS
VL: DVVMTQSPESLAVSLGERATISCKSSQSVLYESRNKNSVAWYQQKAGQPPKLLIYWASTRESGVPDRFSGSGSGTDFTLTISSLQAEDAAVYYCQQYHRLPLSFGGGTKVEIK

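The starting antibody came from a phage panning campaign against this peptide. These sequences belong to a second round, designed from the earlier measurements on random variants of the parent. Several design methods are mixed in this list. The scFvs were displayed on barcoded MATa yeast, the peptide on MATalpha yeast. The frequency of each diploid, read from paired DNA barcodes, reflects how well the two displayed proteins bind. A regression on co-assayed BCL2-family reference pairs converts the normalised counts of each replicate to an apparent Kd. The assay was run in six technical replicates.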

The parent's light chain CDRs are KSSQSVLYESRNKNSVA, WASTRES, QQYHRLPLS; each variant's own CDRs replace them letter for letter.
Affinities are written as log10 Kd with Kd in nM; a lower number is a better binder.
The mean shown is taken over the replicates in which the pair was detected.
Where no diploid with the target was found in any replicate, the entry reads "no signal": below detection, most likely a poor binder, though not proof of it.

CDR-L1	CDR-L2	CDR-L3	mean log10 Kd (nM)	detected	control signals
KLGNMTAIESRNLNSVA	QMDTRES	QQYDRLPLS	0.60	6/6	4/18
KIGMTLNQMMHKKNNVA	DLVTREQ	QQYHRLPLS	0.77	6/6	1/18
KFSQSVWYESRTKNAVA	NASTRES	QQEHRLPLS	0.36	6/6	1/18
KSSQIVLYESRNKNSVA	WASTRES	QQYHRLPLS	2.36	1/6	2/18
KSSQGVLYESRNKNSVA	WASTRES	QYYHRLPLS	1.82	3/6	0/18
KVSGSQLYESRNSNAVA	NASNRMS	QQYHRLPLS	-0.25	6/6	1/18
KSSHSALYESRNKNSVA	AASTRES	QQCHRLPLS	1.96	3/6	0/18
KSSQSVLYESRNKNSVA	WASTRED	QQYARLPLS	1.21	6/6	0/18
HINEVDPGVKNKYNNIA	DISEAAI	QQYFQLPLS	0.43	6/6	1/18
TISNSFMMENQFKNSVA	QATTRES	QCYDRLPLS	2.32	6/6	2/18
KSSQSVLMESRNKNSVA	EASTRES	QQYHRLPLS	0.43	6/6	1/18
KVQQLEPYESRNKNSVA	NASTREH	QQYHRLPLS	0.55	6/6	1/18
KSSNSVLYESRNKNSVA	GASTRES	QQYHYLPLS	1.08	6/6	0/18
ALELEEMQMMKDINSIA	NTEHKTR	QQYFRLPIS	0.99	6/6	2/18
KLPQQTLYETRNKNSVA	TASTREE	QQYHRLPLS	0.73	6/6	1/18
KSSQSVLYYSRNKNSVA	EASTRES	QQYHRLPLS	1.20	6/6	0/18
KLRQSTLYESRNANSVA	NASTRES	QQYHRLPLS	-0.39	6/6	3/18
KIQDNLGTLMQQINSVA	STEEKSD	QSYMRLPLI	1.41	6/6	0/18
KSSQSVLQESRTKNNVA	NASTRES	QQYHRLPLS	0.33	6/6	0/18
KSSQSVLYESLNKNSVA	NASTRES	QQYHRLPLS	0.30	6/6	0/18
KSSESVLFESRNKNSVA	NASTRES	QQYHRLPLS	0.84	6/6	2/18
KISQMSSIESITHNSVA	QTSTREK	QQYDRLPLS	0.35	6/6	2/18
KIYQLGLGSQKIMRNIA	QTSIREL	QSYNRLPLS	1.12	6/6	0/18
TISELYNQAIGMRNNVA	NNQTRED	QQYDRLPLS	no signal	0/6	1/18
KSSQSGLEESRNKNSVA	SASTRES	QQYHELPLS	1.27	6/6	0/18
KSSQSVLGESGNKNSVA	HASTRED	QQYHRLPLS	0.67	6/6	1/18
HLSDSVLYESRNPNSVA	NASTRES	QQYHRLPLS	-0.16	6/6	1/18
KSDQNVLYESWNKNSVA	WASTRIS	QQQHRLPLS	no signal	0/6	0/18
MVNGIMDHLSKQHNNVA	ETTTREE	QQYERLPLS	0.45	6/6	2/18
KVSIFMLTMDNAWSSIA	NSAATRT	QQYQRLPLS	3.62	1/6	0/18
KFSQKVLYEGRTKNSVA	NGSTRES	QQYHRLPLS	-0.01	6/6	1/18

The remaining entries, values ahead:

mean log10 Kd (nM)	detected	control signals	CDR-L1	CDR-L2	CDR-L3
1.79	6/6	1/18	KLRNDFMESKQNQSNIA	GHHESIK	QQYSMLPLS
0.27	6/6	2/18	KLRQQTLYETRNKNSVA	SASTREE	QQYHRLPLS
-0.32	6/6	4/18	QLQWYNTYATASASNIA	DGAQRAN	QQYMRLPLM
0.12	6/6	4/18	NVGQMMDGETRNRNNVA	HQSTRED	QHYHRLPLS
0.06	6/6	3/18	RLNVFQNVSTQGNNNIA	GAEQKVH	QQYMRLPLY
0.03	6/6	2/18	KFEQQWLYSSRNVNSVA	NASTRSQ	QQYHRLPLS
0.40	6/6	1/18	KISQLVNFLGKGKNSVA	QMSTREE	QQYDRLPLS
no signal	0/6	0/18	KSSISVLLESRNKNSVA	WASTRES	QQYHRLPLS
-0.19	6/6	1/18	KLSQSWLYESRNKNSVA	GGSTRES	QQYHRLPLS
no signal	0/6	0/18	MISQMFEGLSTKKNPVA	QVSTREE	QQYHRLPLS
0.64	6/6	0/18	HISSMDMHDGGIIHNVA	DTGVTSR	QQYSRLPLI
0.16	6/6	2/18	KVMQSMWYESRNKNSVA	HASEREQ	QQYHRLPLQ
0.30	6/6	2/18	KLQMQMLYESRMKNSVA	DASQRES	QQYHRLPLS
0.26	6/6	1/18	QLATEVHDNAKLRNSIA	ENELRAM	QQYLMLPLS
1.15	6/6	1/18	KSSQSVLYERRNKNNVA	GSSTREL	QQYHRLPLS
1.96	6/6	1/18	MISQILNMGQFAINSVA	QASLRCN	QQYDRLPLI
1.54	6/6	1/18	KLSQADWYESRNCNSVA	QASTREQ	QQYHRLPLS
no signal	0/6	0/18	KQSQMVEYESRNLNSVA	WAKTREH	QQYHRLKLS
0.12	6/6	0/18	KLQQSVLYESRNKNSVA	NASTRMM	QQYHRLPLS
0.06	6/6	0/18	KLVQSELYESRNKNNVA	GVSQRES	QQYHRLPLS
2.57	6/6	1/18	KLLQEVTGHSRNRHSVA	HNSTRED	QQYDRLPLS
1.89	6/6	3/18	KISQMVRVGSTHKNSIA	EEQTRAK	QQYHRLPLA
2.02	6/6	1/18	KSSQSVLYEERNFSSVA	KASTRES	QQYHRLPLS
0.39	6/6	4/18	KLSQSVLYEDRNWNNVA	AASKRES	QAYHRLPLS
2.24	4/6	0/18	KSSQSVLYESRFTNSVA	RASTRES	QQYHRLPLS
0.30	6/6	1/18	KISQAHNYLSRVMNSVA	DNSTRES	QQYFRLPLS
-0.30	6/6	1/18	KLQQSQLYESRNKNSVA	GASTRES	QQYHRLPLS
2.20	5/6	0/18	KFGQSVLYESRNKNCVA	WATTRES	QQYHRLPLG
0.21	6/6	1/18	KSSWSVLHESRNKNSVA	DASTRSS	QQYHRLPLS
no signal	0/6	0/18	KCSQSWLYESRNKNSVA	GASAREV	QQYHRLPLS
2.22	2/6	0/18	KSSESVWYESRSKNSVA	WASTRES	QQYHRLPLS

The first 6 variants above that were never detected:

| CDR-L1 | CDR-L2 | CDR-L3 | mean log10 Kd (nM) | detected | control signals |
|---|---|---|---|---|---|
| TISELYNQAIGMRNNVA | NNQTRED | QQYDRLPLS | no signal | 0/6 | 1/18 |
| KSDQNVLYESWNKNSVA | WASTRIS | QQQHRLPLS | no signal | 0/6 | 0/18 |
| KSSISVLLESRNKNSVA | WASTRES | QQYHRLPLS | no signal | 0/6 | 0/18 |
| MISQMFEGLSTKKNPVA | QVSTREE | QQYHRLPLS | no signal | 0/6 | 0/18 |
| KQSQMVEYESRNLNSVA | WAKTREH | QQYHRLKLS | no signal | 0/6 | 0/18 |
| KCSQSWLYESRNKNSVA | GASAREV | QQYHRLPLS | no signal | 0/6 | 0/18 |

Empty control strains, which show no peptide, gave a signal in 4% of pairings with all light chain designs; the median was 2.64 and 95% of these signals were weaker than 1.59. No background was subtracted. For each scFv, signals with the empty controls are counted beside the result.
In the paper, a design with two or fewer of six values counts as a poor binder.
Of ten entries with the parent sequence, four were seen in most replicates (averages 0.34 to 2.37), three in one and three in none, so single entries are noisy.
Values of this round are not directly comparable with the first-round values of the same sequences.